## scFv variants of Ab-14 (heavy chain) against a SARS-CoV-2 spike peptide

All variants were tested on one target, the spike HR2 peptide PDVDLGDISGINAS (SARS-CoV-2).

Parent: Ab-14, a human scFv built as VH, a 15-residue (Gly4Ser)3 linker, VL. Only the CDRs of the heavy chain vary.
VH: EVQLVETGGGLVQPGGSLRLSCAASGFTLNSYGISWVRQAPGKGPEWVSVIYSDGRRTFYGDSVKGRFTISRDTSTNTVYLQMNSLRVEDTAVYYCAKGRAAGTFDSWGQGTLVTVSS
VL: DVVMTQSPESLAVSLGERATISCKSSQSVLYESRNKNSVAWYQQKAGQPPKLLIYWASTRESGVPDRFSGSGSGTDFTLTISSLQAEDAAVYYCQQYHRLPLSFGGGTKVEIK

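Phage display of a naive human antibody library on the peptide gave the parent. AAYL49 was designed without a model: most single CDR substitutions and a random sample of double and triple ones. In AlphaSeq, yeast of one mating type display the scFv and yeast of the other type display the target. The frequency of each diploid, read from paired DNA barcodes, reflects how well the two displayed proteins bind. A regression on co-assayed BCL2-family reference pairs converts the normalised counts of each replicate to an apparent Kd. Mating was done three times.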

Positions count from residue 1 of the parent VH; N30V puts V in place of N. Scale: log10 of Kd in nM, estimated from mating counts; low values are strong binders. The mean shown is taken over the replicates in which the pair was detected. A pair that was not seen in any replicate is written "not detected"; this usually means weak binding, but a binder can also be missed. For reference, the parent read 0.65 as the reference entry and 4.11 (one replicate of three) as a member of this library.

changes,"log10 Kd (nM), mean",replicates with signal,empty controls
N30V+Y32D+G33D,not detected,0/3,3/9
V50P+A102G+T104F,3.72,3/3,3/9
G33C+S35V+G55I,4.35,1/3,2/9
T58P+Y60N+D62A,not detected,0/3,1/9
R57C+Y60Q+R100Y,not detected,0/3,0/9
I51K+T104F,2.91,1/3,2/9
D54K+R100S+T104M,not detected,0/3,0/9
G55D+S63F+R100H,not detected,0/3,0/9
I34P+R56F+K65D,4.19,1/3,4/9
G26C+A102R+G103N,3.47,1/3,4/9
Y32H+G99F+D106Q,3.16,3/3,4/9
Y32C+F59S+G61M,1.21,3/3,1/9
Y52M+T58R+G99W,4.27,2/3,2/9
F27Y+Y52V+S107K,not detected,0/3,0/9
S31L+D54S+T58R,not detected,0/3,1/9
L29I+T104D+S107M,not detected,0/3,1/9
Y32S+G33Y+G55E,not detected,0/3,2/9
F27W+L29S+A102Q,4.29,1/3,2/9
S35F+I51L+V64S,4.43,2/3,5/9
T28Q+R56T+G61M,1.88,3/3,4/9
R56Y+A101C+F105Q,4.05,1/3,1/9
S31M+R56T+R57N,2.68,3/3,0/9
F27T+Y52P+T58W,4.58,3/3,3/9
D54K+K65E,2.58,1/3,1/9
S53Q+T58E+G99L,not detected,0/3,2/9
D54I+G55R+R100Q,not detected,0/3,0/9
L29R+S31F+G33R,not detected,0/3,0/9
G26W+K65D+A102K,not detected,0/3,3/9
G33M+A101M+D106V,not detected,0/3,0/9
S53K+A102L+G103R,not detected,0/3,0/9
F27T+A102M+S107C,1.28,3/3,0/9
Y60P+A102Y+S107C,4.36,2/3,1/9
L29P+V50I+R100F,not detected,0/3,0/9
G26L+F27S+Y32G,3.78,1/3,1/9
R57E+T58F+G61L,not detected,0/3,1/9
L29N+K65H+A102T,not detected,0/3,0/9
L29T+S35R+Y52T,not detected,0/3,0/9
V50D+R56I+G103N,not detected,0/3,0/9
S53N+V64K+A101F,5.06,1/3,0/9
G33H+V50K+S63W,5.14,2/3,6/9
V64A+G103P,1.68,3/3,1/9
T104Y+F105M,2.68,3/3,4/9
F59V+G99A+G103Y,2.07,3/3,2/9
T28Q+S35L+R56P,not detected,0/3,1/9
T28P+R56V+R57F,not detected,0/3,0/9
Y32H+S53R+R56D,3.53,1/3,1/9
Y32M+S53Y+V64P,not detected,0/3,1/9
L29V+G55M+T104I,4.98,1/3,1/9
G33P+T58I+S63L,3.67,1/3,3/9
G99S+G103C,4.32,1/3,1/9
D54F+D106Y,not detected,0/3,0/9
G33S+A101K+G103M,3.64,1/3,1/9
T28Q+Y32G+K65G,not detected,0/3,1/9
I34T+S107I,3.30,2/3,5/9
I34M+D62Y+V64H,not detected,0/3,3/9
G26F+R57Q+S63W,not detected,0/3,0/9
D62K+T104R+D106T,2.56,3/3,0/9
I34C+S35E+D54I,not detected,0/3,1/9
D62S+A102Q+F105H,2.16,3/3,1/9
G26D+V64M,3.69,3/3,1/9
Y52I+R57L+A101S,3.16,1/3,3/9
G33F+S63M+D106F,not detected,0/3,0/9
Y52D+F59E+D106E,4.51,2/3,6/9
S53Q+D54K+R56A,not detected,0/3,6/9
S35D+S107E,not detected,0/3,1/9
K65A+R100D+T104D,not detected,0/3,0/9

The 7 strongest on average among those seen in every replicate, once more:

changes,"log10 Kd (nM), mean",replicates with signal,empty controls
Y32C+F59S+G61M,1.21,3/3,1/9
F27T+A102M+S107C,1.28,3/3,0/9
V64A+G103P,1.68,3/3,1/9
T28Q+R56T+G61M,1.88,3/3,4/9
F59V+G99A+G103Y,2.07,3/3,2/9
D62S+A102Q+F105H,2.16,3/3,1/9
D62K+T104R+D106T,2.56,3/3,0/9

Empty control strains, which show no peptide, gave a signal in 15% of pairings with library AAYL49; the median was 4.06 and 95% of these signals were weaker than 2.83. No background was subtracted. For each scFv, signals with the empty controls are counted beside the result.

From the AlphaSeq antibody data of Engelhart et al. 2022 (doi:10.1038/s41597-022-01779-4), copy in the FLAb collection.